Measurements reported in BindingDB's records for doi:10.1021/jm00350a009 (1982).

Test: Compound was tested for inhibition of [3H]dihydroalprenolol radioligand binding to Beta-1 adrenergic receptor in dog heart.

Work on `C=CCc1ccccc1OC[C@@H](O)CNC(C)C` [ALPRENOLOL,(-)] yielded an IC50 of 4.9 nM.
